Results: published antibiotic growth screens (doi:10.1038/s41589-023-01349-8)
This is one part of the list.

What follows are molecules tested on A. baumannii ATCC 17978 (assay: relative growth (fraction of control); higher = less inhibition). Conditions: 50 µM.

Row | SMILES | relative growth
1 | OC[C@@H](O)[C@@H](O[C@@H]1O[C@H](CO)[C@H](O)[C@H](O)[C@H]1O)[C@H](O)[C@@H](O)CO | 0.938
2 | CNC[C@@H](O)Cn1cc(C)c(C(C)=O)c1C | 1.02
3 | NC(=O)c1nnn(Cc2ccccc2)c1N | 0.963
4 | CO[C@@H]1CN(C)C(=O)c2ccc(NS(C)(=O)=O)cc2OC[C@H](C)N(C(=O)C2CCOCC2)C[C@@H]1C | 1.03
5 | CC(C)NC(=O)NCC[C@H]1CC[C@H](NC(=O)CN(C)C)[C@@H](CO)O1 | 0.919
6 | O=C1O[C@H](c2ccccc2)[C@H](c2ccccc2)N2[C@H]1[C@@H](C(=O)O)[C@]1(C(=O)Nc3ccc(C#CC4=CCCCC4)cc31)[C@H]2c1ccccc1OCCO | 1.29
7 | Cc1ccc(S[C@]2(C(=O)O)CC(=O)N(C3Cc4ccccc4C3)[C@@H]2c2ccc(CO)cc2I)cc1 | 0.872
8 | C[C@@H]1CN([C@H](C)CO)S(=O)(=O)c2ccc(/C=C/c3ccccc3)cc2O[C@@H]1CN(C)C(=O)CN1CCOCC1 | 1.01
9 | Cl.Cl.OCCOCCN1CCN(C(c2ccccc2)c2ccc(Cl)cc2)CC1 (stereo unspecified) | 1.35
10 | O=C(C[C@H]1CC[C@@H](NC(=O)CN2CCOCC2)[C@@H](CO)O1)NCCc1ccncc1 | 1.04
11 | CC1=C(C/C=C(\C)CCC[C@H](C)CCC[C@H](C)CCCC(C)C)C(=O)c2ccccc2C1=O | 1.21
12 | Cc1cccc(S(=O)(=O)N2C[C@@H](O)COC[C@@H]3O[C@H](CC(=O)NCc4ccncn4)CC[C@H]32)c1 | 1.03
13 | CO[C@@H]1CN(C)C(=O)c2cc(NC(=O)C3CC3)ccc2OC[C@H](C)N(C(=O)CN2CCOCC2)C[C@@H]1C | 1.26
14 | Cc1ccc(S(=O)(=O)N(C)C[C@@H]2Oc3ncc(-c4ccncc4)cc3C(=O)N([C@@H](C)CO)C[C@@H]2C)cc1 | 1.15
15 | O=C(O)[C@H]1/C(=C/CO)O[C@@H]2CC(=O)N21 | 0.649
16 | CN1C(=O)c2cc(NC(=O)c3cscn3)ccc2OC[C@H]2O[C@H](CC(=O)N3CCOCC3)CC[C@@H]21 | 0.956
17 | C[C@H](CO)N1C[C@H](C)[C@@H](CN(C)C(=O)c2ccccn2)Oc2cc(C#Cc3ccccc3)ccc2S1(=O)=O | 0.908
18 | c1ccc2c([C@@H]3CCCN3)cccc2c1 | 0.944
19 | O=C1[N-]C(=O)C(c2ccccc2)(c2ccccc2)N1.[Na+] | 1.02

Row | SMILES | relative growth
20 | CC(C)NC(=O)NCC[C@@H]1CC[C@H](NC(=O)CN(C)C)[C@@H](CO)O1 | 1.1
21 | COc1ccc(S(=O)(=O)N(C)C[C@@H]2OCc3cnnn3CCCC(=O)N([C@H](C)CO)C[C@H]2C)cc1 | 1.15
22 | COc1ccccc1CNC(=O)C[C@@H]1C[C@@H]2c3cc(NC(=O)Cc4ccncc4)ccc3O[C@@H]2[C@@H](CO)O1 | 1.08
23 | CO[C@@H]1CN(C)C(=O)c2cc(NC(=O)c3ccccc3)ccc2OC[C@H](C)N(C(=O)CN(C)C)C[C@H]1C | 1.01
24 | CC1CCCC(C)N1 (stereo unspecified) | 1.04
25 | COCC#Cc1ccc2c(c1)O[C@@H](CN(C)Cc1ccc(F)cc1)[C@H](C)CN([C@@H](C)CO)S2(=O)=O | 1.47
26 | COc1cc(CCC(=O)O)oc(=O)c1 | 0.938
27 | O=C(O)[C@@H]1CCCCN1 | 1.02
28 | CC(C)(C)C(=O)C[n+]1ccc(C(N)=O)cc1 | 0.987
29 | CCOC(=O)OC[C@@H]1[C@@H]2NC(=O)N(C)[C@@]1(COC(=O)NCCCCCC(=O)NO)Oc1ccccc12 | 0.981
30 | O=C(C[C@@H]1C=C[C@H](NS(=O)(=O)c2ccc(F)cc2)[C@@H](CO)O1)N1CCC(Cc2ccccc2)CC1 | 0.943
31 | C=C(c1ccc(C(=O)O)cc1)c1cc2c(cc1C)C(C)(C)CCC2(C)C | 1.41
32 | CCOC(=O)[N-]c1c[n+](N2CCOCC2)no1 | 0.895
33 | CC(C)=CCCC(C)C1CC[C@@]2(C)C3=C(CC[C@]12C)C1(C)CC[C@H](O)C(C)(C)C1CC3 (stereo partly specified) | 0.805
34 | Cc1o[nH]c(=O)c1CC[C@@H](N)C(=O)O | 0.978
35 | CC[N+](CC)(CC)CCOc1cccc(OCC[N+](CC)(CC)CC)c1OCC[N+](CC)(CC)CC | 0.963
36 | Cc1cc(-c2ccccc2)nc(SCc2ccccc2)c1C#N | 1.1
37 | COc1cc2c(=O)c(-c3ccc4c(c3)OCO4)coc2c2c1OC(C)(C)C=C2 | 1.22
38 | CO[C@H]1CN(C)C(=O)c2ccc(NC(=O)c3ccccc3)cc2OC[C@@H](C)N(C(=O)CN(C)C)C[C@@H]1C | 1.07

Row | SMILES | relative growth
39 | COC1=C(CC=C(C)C)C(=O)c2ccccc2C1=O | 0.843
40 | COc1ccc2c(c1)O[C@@H]1COc3cc(OC)c(OC)cc3[C@@H]1C2=O | 0.945
41 | CC[C@@](N)(C(=O)O)c1ccccc1 | 0.903
42 | O=C1CO[C@@H](c2ccccc2)CN1 | 0.981
43 | COc1ccc(S(=O)(=O)N2C[C@@H](O)COC[C@@H]3O[C@@H](CC(=O)NCCN4CCCCC4)CC[C@H]32)cc1 | 0.914
44 | CCn1c2ccc(Cl)cc2c2cc(Cl)ccc21 | 1.05
45 | O=C(C[C@@H]1CC[C@@H](NC(=O)Cc2ccccn2)[C@H](CO)O1)NCCc1ccncc1 | 1.07
46 | CN1C(CC(=O)c2ccccc2)CCCC1CC(O)c1ccccc1.Cl (stereo unspecified) | 0.958
47 | NCc1ccc(S(N)(=O)=O)cc1 | 0.983
48 | O=C(C1=C[C@@H](c2csc3ccccc23)C[C@@H](OCc2ccc(CO)cc2)O1)N1CCN(Cc2ccc3c(c2)OCO3)CC1 | 1.13
49 | CCc1oc2ccccc2c1C(=O)c1cc(Br)c(O)c(Br)c1 | 0.908
50 | NCCCn1c2c(c3ccccc31)CCCC2 | 0.695
51 | COc1cccc(NC(=O)N[C@@H]2C=C[C@H](CC(=O)N3CCN(C)CC3)O[C@H]2CO)c1 | 1.05
52 | CCOP(=O)(CC(=O)O[C@H]1[C@H](OC(=O)Nc2ccccc2-c2ccccc2)[C@H](OC(=O)Nc2ccccc2-c2ccccc2)[C@@H](OC)O[C@@H]1COC(=O)NCCCCCC(=O)NO)OCC | 0.749
53 | Cn1cnc(S(=O)(=O)N2C[C@@H](O)COC[C@@H]3O[C@@H](CC(=O)NC4Cc5ccccc5C4)CC[C@H]32)c1 | 0.986
54 | Nc1nc(Cl)nc(Cl)n1 | 1.03
55 | C[C@@H](O)C#Cc1ccc2c(c1)O[C@H](CN(C)C(=O)Nc1ccccc1)[C@@H](C)CN([C@@H](C)CO)S2(=O)=O | 0.921
56 | Nc1ncnc2c1ncn2[C@H]1CCCO1 | 0.932
